Experimental data: patent US20200095296A1, “USE OF PEPTIDES AS BIOMARKERS IN THE DIAGNOSIS, CONFIRMATION AND TREATMENT OF A NEUROLOGICAL DISORDER AND TCR AND/OR HLA IMMUNOPROFILING IN NEURODEGENERATIVE DISEASE” (THE TRUSTEES OF COLUMBIA UNIVERSITY IN THE CITY OF NEW YORK, priority 2017, published 2020)

Biological target: HLA DQB1*03:02 (human)
Experiment: competition with radiolabeled peptide, purified HLA

IC50: 5.8 µM
Substance: alpha-syn peptide aa126…aa140
